GIV-Gai inh – inhibitors of GIV GBA-motif binding to rat Galpha-i3. 210,000 tested, 0.42% active. percent of control (FP), % (concentration not given with the values). AID 1224905. Galpha-i3/FITC-GIV peptide fluorescence polarization, 90 min; active compounds read low; scaled: aluminum fluoride 0%, vehicle 100%;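 active = replicate mean at 85% of control or lower, very high polarization wells dropped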;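 note: wells of about 15 µL received 100 nL stock; the first replicate is given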
Numbers without * were called inactive. The full list was thinned out, with hits kept by preference.

Results for CCOC(=O)c1ccc(Nc2nnc(-c3cc4ccc(N(CC)CC)cc4oc3=O)s2)cc1 ?
GIV-Gai inh: 229

Results for CCN(CC)c1ccc2cc(-c3nnc(Nc4ccc(C)cc4)s3)c(=O)oc2c1 ?
GIV-Gai inh: -70*

Results for CCN(CC)c1ccc2cc(-c3nnc(Nc4cc(F)ccc4C)s3)c(=O)oc2c1 ?
GIV-Gai inh: 267

What do the screens show for `CCOC(=O)N1CCN(Cc2nc(-c3ccc(N4CCC(C)CC4)nc3)no2)CC1`?
GIV-Gai inh: 101

Results for Cc1ccc(C(=O)O)cc1-n1c(C)nc2cccnc21 ?
GIV-Gai inh: 96

Results for CC(C)NC(=O)c1ccc2c(c1)CCN2C(=O)C1CCC1 ?
GIV-Gai inh: 105

What do the screens show for `Cn1c(=O)c(N2CCCCC2)c2c3c(cccc31)C(=O)c1ccccc1-2`?
GIV-Gai inh: -32*

How did O=C1c2ccccc2-c2c1cccc2C(=O)N1CCCCC1 do in these assays?
GIV-Gai inh: 100

How did Cn1c(=O)c(Nc2ccccc2)c2c3c(cccc31)C(=O)c1ccccc1-2 do in these assays?
GIV-Gai inh: 116

Results for CCCCNc1nc(SCC(=O)NCc2ccc(C)cc2)nc2ccccc12 ?
GIV-Gai inh: 113

What do the screens show for `CN(C)c1ccc(/C=C2/C(=O)c3ccc(C(=O)O)cc3C2=O)cc1`?
GIV-Gai inh: -73*

What do the screens show for `CN(C)c1ccc(/C=C/C=C2C(=O)c3ccccc3C2=O)cc1`?
GIV-Gai inh: 117

Results for CC(C)(C)C1(C)OC(=O)C(=Cc2ccc(C(=O)O)cc2)C(=O)O1 (stereo not given) ?
GIV-Gai inh: 93

How did N#CCSc1nc2c(sc(=S)n2-c2ccccc2)c(=O)[nH]1 do in these assays?
GIV-Gai inh: 117

What do the screens show for `COc1ccc(NC(=O)c2cc(C)nc3c2c(=O)n(C)c(=O)n3C)cc1`?
GIV-Gai inh: 105

What do the screens show for `CCCN1CCc2c(sc(NC(=S)NC(=O)c3ccccc3)c2C#N)C1`?
GIV-Gai inh: -59*

What do the screens show for `CCOC(=O)c1c(NC(=S)NC(=O)c2ccccc2)sc2c1CC(C)(C)OC2`?
GIV-Gai inh: 100

What do the screens show for `CCCN1CCc2c(sc(NC(=O)c3ccc(S(=O)(=O)N4CCOCC4)cc3)c2C(=O)OC)C1`?
GIV-Gai inh: 196

Results for O=C1CN(C(=O)c2ccco2)C(c2ccccc2)c2cc(Br)ccc2N1 (stereo not given) ?
GIV-Gai inh: 101

What do the screens show for `CCOC(=O)C1CCCN(C(=O)Cn2c(=O)c(=O)n(C)c3ncccc32)C1` (stereo not given)?
GIV-Gai inh: 102

Results for CCN1C(=O)c2cc(C(=O)N3CCC(C)CC3)nn2CC1(C)C(=O)NC1CCCC1 (stereo not given) ?
GIV-Gai inh: 100

Results for CC(Sc1nc2nc[nH]c2c(=O)[nH]1)C(=O)O (stereo not given) ?
GIV-Gai inh: 99

What do the screens show for `Cc1noc(C)c1S(=O)(=O)Nc1cc2c(cc1Sc1ccc(F)cc1)n(C)c(=O)n2C`?
GIV-Gai inh: 102

Results for O=S(=O)(c1ccccc1)n1ccc(-c2ccc3c(c2)CCO3)n1 ?
GIV-Gai inh: 94

Results for CCn1c(SCc2nc(-c3ccccc3Cl)oc2C)nc2c(cnn2CCO)c1=O ?
GIV-Gai inh: 98

Results for COc1cccc2c1Oc1nc(-c3ccccc3)nc(SCC(=O)N(C)c3ccccc3)c1C2 ?
GIV-Gai inh: -21*

What do the screens show for `COc1cccc2c1Oc1nc(-c3ccccc3)nc(SC(F)F)c1C2`?
GIV-Gai inh: 110

What do the screens show for `COC(=O)CSc1nc(-c2ccccc2)nc2c1Cc1cccc(OC)c1O2`?
GIV-Gai inh: 105

How did O=C(NC1CC1)c1ccc(/C=C2/Oc3ccccc3N(Cc3ccccc3F)C2=O)cc1 do in these assays?
GIV-Gai inh: 104

What do the screens show for `CC(C)(C)C1CCc2c(sc3nc(CCC(=O)NC4CC4)[nH]c(=O)c23)C1` (stereo not given)?
GIV-Gai inh: 113

What do the screens show for `O=C1S/C(=C\c2ccc(N3CCOCC3)o2)C(=O)N1c1ccccc1`?
GIV-Gai inh: -42*

How did Cc1ccc(/C=C2\SC(=O)N(c3ccccc3)C2=O)o1 do in these assays?
GIV-Gai inh: 104

Results for O=C1OC2(CCCC2)OC(=O)C1=Cc1ccc(N2CCOCC2)o1 ?
GIV-Gai inh: 333

Results for CS(=O)(=O)N1CCC(n2cnc3cc(F)ccc3c2=O)CC1 ?
GIV-Gai inh: 104

Results for O=C1C(=Cc2ccc(N3CCCC3)cc2)C(=O)c2ccccc21 ?
GIV-Gai inh: -61*

How did O=C1NC(=O)C(=Cc2ccc(N3CCCC3)cc2)C(=O)N1 do in these assays?
GIV-Gai inh: 99

Results for CCn1c2ccccc2c2cc(/C=C3\Cc4ccccc4C3=O)ccc21 ?
GIV-Gai inh: -74*

Results for CN(C)c1ccc(/C=C2\Cc3ccccc3C2=O)cc1 ?
GIV-Gai inh: -75*

What do the screens show for `O=C1/C(=C/c2ccc(N3CCOCC3)cc2)CC/C1=C\c1ccc(N2CCOCC2)cc1`?
GIV-Gai inh: 133

Results for CCn1c2ccccc2c2cc(/C=C3\CCC(C4CCCC4)C3=O)ccc21 (stereo not given) ?
GIV-Gai inh: 106

What do the screens show for `O=C1/C(=C/c2ccc(N3CCOCC3)cc2)Cc2ccccc21`?
GIV-Gai inh: -75*

What do the screens show for `O=C1C(=Cc2ccc(F)cc2)C(=O)c2ccccc21`?
GIV-Gai inh: 98

How did CN(C)c1ccc(/C=C2\CCC/C(=C\c3ccccc3)C2=O)cc1 do in these assays?
GIV-Gai inh: 155

What do the screens show for `CCn1c2ccccc2c2cc(C=C(C#N)C#N)ccc21`?
GIV-Gai inh: 136

How did O=C1/C(=C/c2ccc3nccnc3c2)Cc2ccccc21 do in these assays?
GIV-Gai inh: 112

What do the screens show for `CN1C/C(=C\c2ccc(N3CCOCC3)cc2)C(=O)/C(=C/c2ccc(N3CCOCC3)cc2)C1`?
GIV-Gai inh: 197

How did CC(=O)n1c2ccccc2c2c(-c3ccc(C)cc3)c(N3CCOCC3)sc21 do in these assays?
GIV-Gai inh: 102

Results for CCC(=O)Oc1ccc(C#N)cc1OC ?
GIV-Gai inh: 100

A section from the list above:
Results for CN(C)c1ccc(/C=C2\Cc3ccccc3C2=O)cc1 ?
GIV-Gai inh: -75*

What do the screens show for `O=C1/C(=C/c2ccc(N3CCOCC3)cc2)CC/C1=C\c1ccc(N2CCOCC2)cc1`?
GIV-Gai inh: 133

Results for CCn1c2ccccc2c2cc(/C=C3\CCC(C4CCCC4)C3=O)ccc21 (stereo not given) ?
GIV-Gai inh: 106

What do the screens show for `O=C1/C(=C/c2ccc(N3CCOCC3)cc2)Cc2ccccc21`?
GIV-Gai inh: -75*

What do the screens show for `O=C1C(=Cc2ccc(F)cc2)C(=O)c2ccccc21`?
GIV-Gai inh: 98

How did CN(C)c1ccc(/C=C2\CCC/C(=C\c3ccccc3)C2=O)cc1 do in these assays?
GIV-Gai inh: 155

(list continues)
How did COC(=O)c1c(-c2ccc(Cl)cc2)noc1Nc1ccc2c(c1)OCCO2 do in these assays?
GIV-Gai inh: 97

What do the screens show for `COc1c(Cl)cc(Cl)cc1C1Nc2ccc3ccccc3c2C2=C1C(=O)CC(C)(C)C2` (stereo not given)?
GIV-Gai inh: 107

Results for CC1(C)SC(=S)N(/N=C/c2ccccc2)C1N(O)C(=O)Nc1ccccc1 (stereo not given) ?
GIV-Gai inh: 110

How did CCOc1ccc(-c2ccc(SCc3nc(-c4ccc(OC)cc4OC)no3)nn2)cc1 do in these assays?
GIV-Gai inh: 106

Results for Clc1ccc(N=c2scc(-c3ccccc3)n2-c2ccccc2)nc1 ?
GIV-Gai inh: 117

How did NC(=O)CNC(=O)c1sc2ncccc2c1-n1cccc1 do in these assays?
GIV-Gai inh: 103

How did Oc1ccc(C=Nc2ccc(Nc3ccccc3)cc2)c(O)c1 do in these assays?
GIV-Gai inh: 6.8*

What do the screens show for `Oc1ccc(C=Nc2cccc(C(F)(F)F)c2)c(O)c1`?
GIV-Gai inh: 110

Results for C(=Nc1ccc(Nc2ccccc2)cc1)c1ccco1 ?
GIV-Gai inh: 123

What do the screens show for `O=C(O)c1ccc2nc(-c3cc4cccc(O)c4oc3=O)[nH]c2c1`?
GIV-Gai inh: 95

How did CC1CCCN(Cc2c(O)ccc3cc(-c4nc5ccccc5[nH]4)c(=O)oc23)C1 (stereo not given) do in these assays?
GIV-Gai inh: -33*

What do the screens show for `CN1CCN(Cc2c(O)ccc3cc(-c4ccccc4)c(=O)oc23)CC1`?
GIV-Gai inh: 111
